The data set is described as follows: in vivo. Conditions: mouse, po.

For `CC(C)(C)/N=C(/NC#N)Nc1cccnc1` [P 1060, N-tert-Butyl-N"-cyano-N'-3-pyridylcuanidine], the LD50 (usually the dose at which mortality reaches 50%) is more than 1000 mg/kg.

The values above are taken from patent US4057636A, “Antihypertensive pyridylguanidine compounds” (Leo Pharmaceutical Products Ltd. A/S, priority 1974, dated 1977).
